Measurements published in publication PMC3199943, “Screening the MayBridge Rule of 3 Fragment Library for Compounds That Interact with the Trypanosoma brucei myo-Inositol-3-Phosphate Synthase and/or Show Trypanocidal Activity” (Molecular Biology International, 2011).

The compounds below were run on cultured bloodstream T. brucei (strain 427) (assay: microbe, parasite or virus in culture). Conditions: Trypanosoma brucei, read-out: T. brucei Alamar Blue.
O=C(O)c1sccc1Cl [compound 290, 3‐chlorothiophene‐2‐carboxylic acid] was tested, and the viability at 500 µM was 93.3 ± 13.4%. With Cc1nc2ccc(N)cc2s1 [compound 302, 2‐methyl‐1,3‐benzothiazol‐6‐ylamine] the viability at 500 µM was 58 ± 4.6%. CCCCCSc1nnc[nH]1 [compound 357, 3‐(pentylthio)‐4H‐1,2,4‐triazole] showed a viability at 500 µM of 23.8 ± 4.9%. O=C(O)c1ccnc2ccccc12 [compound 368, quinoline‐4‐carboxylic acid] was tested, and the viability at 500 µM was 96.3 ± 9.9%. OCc1ccc(-n2cccc2)cc1 [compound 372, [4-(1H-pyrrol-1-yl)phenyl]methanol] showed a viability at 500 µM of 37 ± 14%. Cc1onc(-c2ccccc2)c1N [compound 384, 5‐methyl‐3‐phenyl‐4‐isoxazolamine] gave a viability at 500 µM of 107 ± 7.1%. Work on O=C(O)Cc1c[nH]c2ccccc12 [compound 391, 2-(1H-indol-3-yl)acetic acid] yielded a viability at 500 µM of 38.8 ± 10.1%. For COC(=O)c1c[nH]c2ccccc12 [compound 392, methyl 1H‐indole‐3‐carboxylate], the viability at 500 µM was 90.6 ± 14.9%. NCc1ccc(N2CCCC2)cc1 [compound 414, [4‐(1‐pyrrolidinyl)phenyl]methanamine] was tested, and the viability at 500 µM was 31.2 ± 6.3%. In the case of Nc1cccc(OC(F)(F)F)c1 [compound 419, 3‐(trifluoromethoxy)aniline], the viability at 500 µM is reported as 104 ± 2.1%. Nc1ccccc1N1CCNCC1 [compound 429, 2‐piperazin‐1‐ylaniline] gave a viability at 500 µM of 40.2 ± 13.4%. O=C(O)C1COc2ccccc2C1 (stereo not drawn) [compound 431, 3‐chromanecarboxylic acid] was tested, and the viability at 500 µM was 95.2 ± 14.3%. For Nc1cccc(N2CCOCC2)c1 [compound 441, 3‐morpholin‐4‐ylaniline], the viability at 500 µM was 52.6 ± 19.5%. O=C(O)c1ccc2ncsc2c1 [compound 444, 1,3‐benzothiazole‐6‐carboxylic acid] showed a viability at 500 µM of 112 ± 19.8%. With O=C(O)CSCc1ccccc1 [compound 465, 2‐(benzylthio)acetic acid] the viability at 500 µM was 111 ± 12.3%. Compound COC(=O)CSc1ccccc1 [compound 466, methyl 2‐(phenylthio)acetate] has a viability at 500 µM of 93.8 ± 5.2%. CC(=O)Nc1ccc(Cl)cc1C [compound 473, 4‐chloro‐2‐methylacetanilide] showed a viability at 500 µM of 86 ± 1%. Work on O=C(O)c1cc2sccc2s1 [compound 479, thieno[3,2‐b]thiophene‐2‐carboxylic acid] yielded a viability at 500 µM of 91.9 ± 9%. OCc1ccc(-c2ccccc2)nc1 [compound 492, (6‐phenyl‐3‐pyridinyl)methanol] gave a viability at 500 µM of 59.3 ± 3.2%. N#Cc1ccc(N2CCNCC2)cc1 [compound 518, 4‐Piperazin‐1‐yl‐benzonitrile] showed a viability at 500 µM of 61.8 ± 2.1%. O=C(O)CCc1c[nH]c2ccccc12 [compound 533, 3‐(1H‐indol‐3‐yl)propanoic acid] gave a viability at 500 µM of 95.2 ± 14.2%. Work on Cc1onc(-c2ccccc2)c1CO [compound 534, (5‐methyl‐3‐phenyl‐4‐isoxazolyl)methanol] yielded a viability at 500 µM of 59.9 ± 18.3%. O=C(O)c1cnccc1C(F)(F)F [compound 553, 4‐(trifluoromethyl)nicotinic acid] was tested, and the viability at 500 µM was 103 ± 10.9%. CN1CCN(c2ccccc2N)CC1 [compound 561, 2‐(4‐methylpiperazin‐1‐yl)aniline] showed a viability at 500 µM of 72.8 ± 18.6%. For OCc1cccnc1N1CCCCC1 [compound 572, (2‐piperidino‐3‐pyridinyl)methanol], the viability at 500 µM was 32.5 ± 9%. c1ccc(Sc2ccsc2)cc1 [compound 574, 3‐(phenylthio)thiophene] was tested, and the viability at 500 µM was 112 ± 15.2%. CC(=O)c1cc(Cl)sc1Cl [compound 590, 1‐(2,5‐dichloro‐3‐thienyl)ethan‐1‐one] gave a viability at 500 µM of 106 ± 10.2%. In the case of O=C(O)C12CC3CC(CC(O)(C3)C1)C2 [compound 597, 3‐hydroxyadamantane‐1‐carboxylic acid], the viability at 500 µM is reported as 106 ± 11%. O=C(O)c1cccc(-c2ccccn2)c1 [compound 611, 3‐pyrid‐2‐ylbenzoic acid] gave a viability at 500 µM of 98.5 ± 13.5%. Compound CC(C)(C)OC(=O)Nc1ccsc1 [compound 619, tert‐butyl N‐(3‐thienyl)carbamate] has a viability at 500 µM of 60.5 ± 3.8%. OCc1ccc(Oc2ccccc2)cc1 [compound 622, (4‐phenoxyphenyl)methanol] was tested, and the viability at 500 µM was 84 ± 5.4%. Compound NC(=S)COc1cccc(Cl)c1 [compound 633, 2‐(3‐chlorophenoxy)ethanethioamide] has a viability at 500 µM of 86.5 ± 6.5%. O=C(O)c1cccc(-c2ccsc2)c1 [compound 650, 3‐thien‐3‐ylbenzoic acid] showed a viability at 500 µM of 30.5 ± 9%. CNCc1ccc(N2CCCCC2)cc1 [compound 657, N‐methyl‐N‐(4‐piperidin‐1‐ylbenzyl)amine] showed a viability at 500 µM of 27.3 ± 8.2%. For O=C(O)c1ccc(-c2nccs2)cc1 [compound 662, 4‐(1,3‐thiazol‐2‐yl)benzoic acid], the viability at 500 µM was 116 ± 24%. Compound O=C(O)c1ccc(CN2CCCC2)cc1 [compound 665, 4‐(pyrrolidin‐1‐ylmethyl)benzoic acid] has a viability at 500 µM of 79.6 ± 19.9%. For N#Cc1ccnc(N2CCSCC2)c1 [compound 668, 2‐thiomorpholinoisonicotinonitrile], the viability at 500 µM was 106 ± 23.6%.

Same assay, conditions: Trypanosoma brucei, read-out: T. brucei Alamar Blue (% survival)
OCc1ccc(-n2cccc2)cc1 [compound 372, [4-(1H-pyrrol-1-yl)phenyl]methanol] was tested, and the viability at 500 µM was 37 ± 14%. O=C(O)Cc1c[nH]c2ccccc12 [compound 391, 2-(1H-indol-3-yl)acetic acid] showed a viability at 500 µM of 38.8 ± 10.1%.

Same assay, conditions: Trypanosoma brucei, read-out: T. brucei Alamar Blue, Supplementary Table 1; compound 0.5 mM; percentage of controls in the absence of compound; mean ± SD (n=3) or SE (n=2)
In the case of Nc1ncccc1OCc1ccccc1 [compound 624, 3‐(benzyloxy)pyridin‐2‐amine], the viability at 500 µM is reported as 70.4 ± 12.1%. Work on CNCc1ccccc1-c1cccs1 [compound 646, N‐methyl‐N‐(2‐thien‐2‐ylbenzyl)amine] yielded a viability at 500 µM of 27.9 ± 11%.

Same assay, conditions: Trypanosoma brucei, read-out: T. brucei ED50, ED50 ± SD (n = 4)
OCc1ccc(-n2cccc2)cc1 [compound 372, [4-(1H-pyrrol-1-yl)phenyl]methanol] was tested, and the IC50 was 302 ± 15 µM.
